# Values joined by “and” are separate entries in the source; they are usually repeats but may differ in a detail not shown here. Equal values may be shown once. “Also recorded” adds a separate entry of the source. Read-outs that look alike come from different tables or passages of the source.
# Columns and labels:
# [1] = cited from earlier work
# [2] = Adverse effects questionnaire after buprenorphine in healthy subjects; assay type: in vivo, human
# [3] = rifampicin 600 mg daily for 15 days; stable high-dose sublingual buprenorphine/naloxone, opioid-dependent subjects; ref McCance‐Katz et al. 2011; cited from earlier work
# [4] = human, in vivo, iv
# [5] = human, in vivo
# [6] = ref Brewster et al. 1981, Cone et al. 1984
substance,measurement,setting,value
buprenorphine,Excreted in bile (as metabolites),[1]; [6],80–90%
same,Excreted in urine (mainly as metabolites),[1]; [6],10–30%
same,Time to peak plasma concentrations,"[1]; sublingual, ref Bullingham et al. 1981, McAleer et al. 2003, Ciraulo et al. 2006",1 to 3 h
same,Bioavailability,"[1]; sublingual, ref Bullingham et al. 1982, Kuhlman et al. 1996, Mendelson et al. 1997, Nath et al. 1999, Cowan et al. 2005",30–55%
same,Adverse effects,"[2]; all subjects, sublingual 0.6/0.8 mg and intravenous 0.4 mg",mild‐to‐moderate adverse effects
same,Subjects needing medication (cetirizine hydrochloride) for itch or urticaria,"[2]; intravenous part, 12 subjects",Eight
same,Decrease in the mean AUC by rifampicin,[3],70%
same,AUC0–18,[4],5.32 ± 3.18 ng·h/mL and 4.53 ± 1.64 ng·h/mL
same,"Ae, amount excreted into urine within 18 h (free unconjugated)",[4],1.5 ± 0.7 µg and 2.7 ± 2.3 µg
same,Effect of rifampicin on plasma concentrations,[4],not influenced; also recorded: no statistically significant differences
same,AUC0-18,[5],1.64 ± 0.74 ng·h/mL and 1.36 ± 0.87 ng·h/mL
same,"Ae, amount excreted into urine within 18 h (free unconjugated)",[5],0.21 ± 0.20 µg and 0.17 ± 0.20 µg
same,C max,[5],0.36 ± 0.15 ng/mL and 0.30 ± 0.17 ng/mL
same,Decrease of mean AUC0–18 by rifampicin,[5],25%

# Reference: PMC5226287 (Pharmacology Research & Perspectives, 2016)
